Test results taken from the supplement of paper PMC11403291.

Key:
Test in all cases: apparent dissociation constant pKd app (kinobead competition) (-log10(M)); higher = stronger binding
EPHA3 = biological target: T1, EPHA3 (UniProt P29320)
T1 sequence (whole entry): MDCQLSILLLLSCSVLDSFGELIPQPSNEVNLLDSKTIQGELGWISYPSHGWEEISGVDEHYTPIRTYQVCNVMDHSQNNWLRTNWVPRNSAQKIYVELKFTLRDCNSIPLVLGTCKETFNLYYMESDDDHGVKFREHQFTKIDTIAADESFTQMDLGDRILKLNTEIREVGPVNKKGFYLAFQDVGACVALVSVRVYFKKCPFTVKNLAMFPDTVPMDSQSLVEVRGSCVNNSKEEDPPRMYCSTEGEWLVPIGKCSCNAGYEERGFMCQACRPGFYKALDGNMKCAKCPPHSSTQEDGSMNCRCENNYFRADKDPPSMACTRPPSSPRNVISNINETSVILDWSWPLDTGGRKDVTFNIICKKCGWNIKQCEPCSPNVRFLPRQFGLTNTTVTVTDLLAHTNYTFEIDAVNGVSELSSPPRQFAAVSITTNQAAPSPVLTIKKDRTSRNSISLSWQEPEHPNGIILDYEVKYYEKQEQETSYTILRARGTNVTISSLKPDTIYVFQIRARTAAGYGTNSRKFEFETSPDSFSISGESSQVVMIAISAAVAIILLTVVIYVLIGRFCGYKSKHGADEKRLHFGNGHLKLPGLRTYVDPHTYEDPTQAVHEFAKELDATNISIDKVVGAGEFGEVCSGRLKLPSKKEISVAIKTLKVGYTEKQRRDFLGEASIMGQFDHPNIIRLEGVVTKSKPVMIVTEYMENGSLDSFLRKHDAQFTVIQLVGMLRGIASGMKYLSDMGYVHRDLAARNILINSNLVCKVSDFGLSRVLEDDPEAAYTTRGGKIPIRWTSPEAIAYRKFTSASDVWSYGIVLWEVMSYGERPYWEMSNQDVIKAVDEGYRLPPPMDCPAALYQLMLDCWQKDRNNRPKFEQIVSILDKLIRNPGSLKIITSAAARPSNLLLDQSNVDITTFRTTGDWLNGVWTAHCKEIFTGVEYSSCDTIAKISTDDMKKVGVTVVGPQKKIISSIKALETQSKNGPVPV

AURKA = biological target: T2, AURKA (UniProt O14965)
T2 sequence (whole entry): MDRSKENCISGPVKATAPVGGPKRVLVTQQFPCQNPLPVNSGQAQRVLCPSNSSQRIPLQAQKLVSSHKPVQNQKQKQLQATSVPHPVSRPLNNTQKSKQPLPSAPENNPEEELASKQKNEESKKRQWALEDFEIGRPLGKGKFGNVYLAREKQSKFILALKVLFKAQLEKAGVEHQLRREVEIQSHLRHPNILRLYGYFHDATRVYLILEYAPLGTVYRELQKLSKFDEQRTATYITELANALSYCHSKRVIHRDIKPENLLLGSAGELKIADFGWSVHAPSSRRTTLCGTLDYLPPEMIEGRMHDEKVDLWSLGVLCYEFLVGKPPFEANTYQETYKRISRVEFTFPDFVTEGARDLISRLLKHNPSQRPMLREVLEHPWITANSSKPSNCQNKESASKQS

EPHA1 = biological target: T3, EPHA1 (UniProt P21709)
T3 sequence (whole entry): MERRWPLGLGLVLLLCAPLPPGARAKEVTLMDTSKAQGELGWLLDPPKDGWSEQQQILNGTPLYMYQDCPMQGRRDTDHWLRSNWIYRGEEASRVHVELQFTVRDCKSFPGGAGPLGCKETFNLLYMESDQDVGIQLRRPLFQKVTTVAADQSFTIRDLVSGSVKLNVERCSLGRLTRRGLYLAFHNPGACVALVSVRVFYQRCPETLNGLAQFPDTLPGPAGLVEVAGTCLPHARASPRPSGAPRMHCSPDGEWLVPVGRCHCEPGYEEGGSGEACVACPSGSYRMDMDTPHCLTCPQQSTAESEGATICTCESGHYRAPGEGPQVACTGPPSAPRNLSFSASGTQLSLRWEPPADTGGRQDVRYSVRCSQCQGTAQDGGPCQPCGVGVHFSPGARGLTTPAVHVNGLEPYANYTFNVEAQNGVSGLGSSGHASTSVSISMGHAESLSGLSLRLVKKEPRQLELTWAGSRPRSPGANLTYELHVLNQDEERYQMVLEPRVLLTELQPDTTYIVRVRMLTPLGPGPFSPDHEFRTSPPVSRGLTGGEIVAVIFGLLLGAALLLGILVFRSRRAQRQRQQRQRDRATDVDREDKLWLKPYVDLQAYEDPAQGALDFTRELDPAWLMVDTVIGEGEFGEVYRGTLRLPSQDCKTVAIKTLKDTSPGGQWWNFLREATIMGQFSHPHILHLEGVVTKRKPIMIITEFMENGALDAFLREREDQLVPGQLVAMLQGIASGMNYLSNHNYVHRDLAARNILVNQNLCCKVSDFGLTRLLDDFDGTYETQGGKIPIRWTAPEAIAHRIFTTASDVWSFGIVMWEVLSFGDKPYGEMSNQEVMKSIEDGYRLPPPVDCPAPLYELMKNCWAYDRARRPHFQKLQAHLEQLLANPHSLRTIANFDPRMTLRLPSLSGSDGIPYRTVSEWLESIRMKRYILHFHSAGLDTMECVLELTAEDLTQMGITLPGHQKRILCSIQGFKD

Row | SMILES | apparent dissociation constant pKd app (-log10) (EPHA3) | apparent dissociation constant pKd app (-log10) (AURKA) | apparent dissociation constant pKd app (-log10) (EPHA1)
1 | NC(=O)c1cccc2cn(-c3ccc([C@@H]4CCCNC4)cc3)nc12 [Niraparib] | < 4.5 | < 4.9 | < 4.7
2 | O=C(c1cc(Cc2n[nH]c(=O)c3ccccc23)ccc1F)N1CCN(C(=O)C2CC2)CC1 [Olaparib] | < 4.5 | < 4.9 | < 4.7
3 | Cn1ncnc1[C@H]1c2n[nH]c(=O)c3cc(F)cc(c23)N[C@@H]1c1ccc(F)cc1 [Talazoparib] | < 4.5 | < 4.9 | < 4.7
